Screening results from PubChem.
Hits are enriched below; roughly 16% of the tested compounds scored in any of these assays.
DT40 TDP1 no CPT = qHTS for Inhibitors of human tyrosyl-DNA phosphodiesterase 1 (TDP1): qHTS in cells in absence of CPT. DT40 Tdp1-/- hTDP1 cells, no CPT, ATP luminescence, 48 h. Potency, µM (top dose mostly 46.2 µM), without a hit: top-dose activity change, negative = growth inhibition, usual class: inhibitors. actives 15% (n = 420,000). AID 686978, 2013; further: potency means the concentration at half of the fitted maximal effect; on the % scale 0 is the no-effect control and ±100 the full control effect; nearly all actives have a fitted effect of over 55% in size
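No-CPT arm: Tdp1-/-;hTDP1 DT40 cells (400/well) plus compounds, incubated ≥48 hr at 37 °C. Readout CellTiter-Glo luminescence.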
uPA generation = blocks generation of uPA at the cell surface | actives 0.31% (n = 330,000) | cell surface uPA generation assay, qHTS | Potency, µM (highest dose often 38.3 µM), without a hit: top-dose activity change, negative = inhibition, actives largely listed as inhibitors; active means well fitted inhibition curve with a large enough effect; inconclusive means small, poorly fitted or top-dose-only effect; inactive means no such curve, though single readings can be large or run the other way; tested in mouse RAW 264.7 cells; further: potency means the concentration at half of the fitted maximal effect; on the % scale 0 is the no-effect control and ±100 the full control effect; nearly all actives have a fitted effect of over 55% in size
miR-21 reporter = raises the signal of a miR-21 reporter | HeLa miR-21 FLuc reporter, luciferase, 48 h | Potency, µM (highest dose often 38.3 µM), inactives show at the highest dose reporter change, positive = more light | 340,000 tested, under 10 active | AID 2288; active = well fitted rising curve with a large enough effect; inconclusive = small, poorly fitted or top-dose-only effect; inactive = no such curve, though single readings can be large or run the other way;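 note: % of control where 0% means no effect; miR-21 action dims this reporter so a rising signal means less miR-21 action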
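Luminescence from a firefly luciferase reporter carrying a miR-21 binding site downstream, stably expressed under a CMV promoter in HeLa cells that make miR-21 endogenously, reports miRNA modulation after 48 h compound exposure up to approximately 40uM final.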
TDP1 block = inhibitors of human tyrosyl-DNA phosphodiesterase TDP1; Q9NUW8; recombinant TDP1, AlphaScreen DNA substrate cleavage; Potency, µM (doses to about 130 µM), inactives show at the highest dose activity change, negative = inhibition, usual class: inhibitors; actives 0.28% (n = 350,000); AID 485290; further: potency means the concentration at half of the fitted maximal effect; on the % scale 0 is the no-effect control and ±100 the full control effect; nearly all actives have a fitted effect of over 40% in size
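E. coli-derived human Tdp1, 1 nM final. Cpd preinc 15 min RT; substrate 15 nM final, 5 min RT; AS bead mix 10 ug/ml final, 10 min RT. Signal loss = tyrosine-FITC cleavage. No-enzyme wells = max signal.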
TDP1 cell CPT = DT40-hTDP1 cell growth loss with CPT. chicken DT40 Tdp1-/-;hTDP1 cells + 20 nM CPT, ATP luminescence, 48 h. Potency, µM (titrated, usually from 46.2 µM), for the others: at the top dose activity change, negative = growth inhibition, hits mostly inhibitors. actives 12% (n = 420,000). AID 686979; further: potency means the concentration at half of the fitted maximal effect; on the % scale 0 is the no-effect control and ±100 the full control effect; nearly all actives have a fitted effect of over 55% in size
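Chicken DT40 Tdp1-/- cells stably complemented with human TDP1 were seeded at 400 cells/well in medium containing 20 nM camptothecin, exposed to pin-transferred compounds, and grown at 37 °C for at least 48 hr. Viability was read as ATP luminescence.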
* = called active by the depositor; ? = inconclusive; . = not tested or not shown; [ ] = remark or other dose. Unless noted, the call rests on the fitted dose curve; in most records, active means well fitted curve in the direction sought with a large enough effect; inconclusive means small, poorly fitted or top-dose-only effect, or another doubt; inactive means no such curve, though single readings can be large; an effect the other way counts as inactive or inconclusive.

The line under a structure holds: DT40 TDP1 no CPT	uPA generation	miR-21 reporter	TDP1 block	TDP1 cell CPT
> CCOC(=O)N1CCC(N(C(=O)Nc2cccc(OC)c2)C(C)CC)CC1 (stereo not given)
 : 10.3µM*	-3.6%	-8.0%	-2.6%	20.6µM*
> CCOC(=O)N1CCC(N(CCOC)C(=O)Nc2ccc(Cl)c(Cl)c2)CC1
 : 10.3µM*	3.5%	2.1%	-1.1%	18.4µM*
> CCOC(=O)N1CCC(N(CCCOC)C(=O)Nc2cccc(OC)c2)CC1
 : ?	-1.9%	-5.2%	4.1%	?
> COc1ccc(-c2nc[nH]c2[N+](=O)[O-])cc1
 : 2.6%	5.7%	0.5%	-0.6%	12.5%
> Oc1ccc(Br)cc1C1C=C(c2ccc3c(c2)OCO3)NC(c2c(F)cccc2Cl)N1 (stereo not given)
 : .	.	.	3.9%	.
> CCOc1cccc(C2C=C(c3ccc4c(c3)OCO4)NC(c3ccc(Br)cc3)N2)c1O (stereo not given)
 : 15.8µM*	.	.	3.2%	?
> CCOc1ccccc1C(=O)NCc1ccc2c(c1)OCO2
 : -22.6%	0.9%	-8.0%	-2.3%	-28.8%
> CCOc1cccc(C2C=C(c3ccc4c(c3)OCO4)NC(c3cccc(Br)c3)N2)c1O (stereo not given)
 : 10µM*	.	.	2.0%	10µM*
> OC(c1cccnc1)c1ccc2c(c1)CN(Cc1cccc3c1OCO3)CCO2 (stereo not given)
 : -19.5%	.	.	.	0.3%[9.04 µM]
> CC1CCCC(C)N1Cc1cn2ccccc2n1 (stereo not given)
 : 2.6%	5.3%	-1.2%	1.0%	4.9%
> CCc1cccc2c(C(=O)CN3C(=O)NC4(CCc5ccccc54)C3=O)c[nH]c12 (stereo not given)
 : 4.61µM*	-10.6%	.	0.6%	4.61µM*
> CCc1cccc2c(C(=O)CN3C(=O)N(C)C4(CCCCC4)C3=O)c[nH]c12
 : 8.2µM*	?	.	0.4%	3.26µM*
> CN1OC[C@@H]2CN(Cc3cc(Cl)cc(Cl)c3)[C@H](c3cccc(-c4ccc(C#N)cc4)c3)C[C@@H]21
 : ?	.	.	.	20.6µM*
> COCC(=O)N1C[C@H]2CON(C)[C@H]2C[C@H]1c1cccc(-c2ccccc2OC)c1
 : 8.2%	.	.	.	3.3%
> CN1C[C@H]2CON(C)[C@H]2C[C@H]1c1cccc(-c2ccc(C#N)cc2)c1
 : -1.8%	-0.6%	.	.	-13.5%

The line under a structure holds: DT40 TDP1 no CPT	uPA generation	miR-21 reporter	TDP1 block	TDP1 cell CPT
> COc1ccccc1-c1cccc([C@@H]2C[C@H]3[C@H](CON3C)CN2C(=O)CCc2ccccc2)c1
 : ?	-5.9%	.	.	18.4µM*
> COc1ccc(S(=O)(=O)N2C[C@H]3CON(C)[C@H]3C[C@H]2c2ccc(-c3cccc(F)c3)cc2)cc1
 : ?	.	.	.	-14.0%
> Cc1ccccc1S(=O)(=O)N1C[C@H]2CON(C)[C@H]2C[C@H]1c1cccc(Oc2ccccc2)c1
 : 18.4µM*	0.3%	.	.	?
> CN1OC[C@@H]2CN(S(=O)(=O)c3cc(Cl)cc(Cl)c3)[C@H](c3ccc(-c4ccc(C#N)cc4)cc3)C[C@@H]21
 : 20.6µM*	.	.	.	?
> CCN(CCNS(=O)(=O)c1ccc2c(c1)oc(=O)n2C)c1ccccc1
 : -28.0%	6.2%	-5.5%	5.2%	-26.2%
> CC(=O)N1CCN(S(=O)(=O)c2cccc(C(=O)Nc3cc(C(F)(F)F)ccc3N3CCOCC3)c2)CC1
 : 1.3%	-6.7%	-5.3%	2.3%	-1.3%
> Cc1ccc(NC(=O)CSc2nnc3ccccn23)c(Cl)c1
 : -2.6%	.	.	.	-16.9%
> CC(C)CN(C(=O)c1cc(Cl)nc2ccccc12)C1CCS(=O)(=O)C1 (stereo not given)
 : 5.6%	-3.9%	.	-1.9%	-7.7%
> O=C(Nc1cc(Cl)ccc1Cl)P(=O)(O)c1ccccc1
 : -5.0%	-0.8%	.	.	-22.0%
> CN1OC[C@@H]2CN(Cc3ccc(Cl)cc3)[C@H](c3cccc(Br)c3)C[C@@H]21
 : 16.4µM*	-8.0%	.	.	?
> CN1OC[C@@H]2CN(Cc3ccccc3)[C@H](c3cccc(N4CCOCC4)c3)C[C@@H]21
 : 6.3%	-1.5%	.	.	-7.8%
> CN1OC[C@@H]2CN(C(=O)C(C)(C)C)[C@H](c3cccc(Br)c3)C[C@@H]21
 : -6.5%	-3.6%	.	.	4.9%
> Cc1ccccc1-c1cccc([C@@H]2C[C@H]3[C@H](CON3C)CN2Cc2ccccc2)c1
 : 16.4µM*	0.9%	.	.	23.1µM*
> CNNC(=S)NC1CC2CC1C1C=CCC21 (stereo not given)
 : -6.9%	5.5%	-8.6%	6.3%	-14.7%
> COc1cc(/C=N/NC(=S)NC2CC3CC2C2C=CCC32)ccc1O (stereo not given)
 : 14.6µM*	2.3%	-3.0%	8.6%	?

The line under a structure holds: DT40 TDP1 no CPT	uPA generation	miR-21 reporter	TDP1 block	TDP1 cell CPT
> CCOc1ccc(/C=N/NC(=S)NC2CC3CC2C2C=CCC32)cc1 (stereo not given)
 : 16.4µM*	5.7%	-0.1%	1.3%	16.4µM*
> O=C(/C=C/c1ccccc1)N/C(=C/c1ccccc1)C(=O)N1CCOCC1
 : 4.4%	-0.1%	-6.6%	1.1%	3.7%
> CC(Oc1ccccc1Cl)C(=O)Nc1ccc(S(=O)(=O)N2CCN(C)CC2)cc1 (stereo not given)
 : ?	7.5%	.	.	?
> O=C(Cn1c(=O)c2cccn2c2ccccc21)Nc1ccc(F)cc1F
 : 4.2%	10.7%	-20.2%	2.1%	?
> CCC(C)NC(=O)c1c(-c2ccccc2)c(-c2ccccc2)nn(C)c1=O (stereo not given)
 : -3.7%	.	12.1%	2.3%	-7.4%
> CC(=O)c1sc(NC(=O)c2c(-c3ccccc3)c(-c3ccccc3)nn(C)c2=O)nc1C
 : 0.517µM*	.	26.9%	0.0%	0.411µM*
> CCCOC(=O)c1c(-c2ccccc2)c(-c2ccccc2)nn(C)c1=O
 : 14.6µM*	.	?	7.0%	20.6µM*

Looked up by compound from above (four):
The line under a structure holds: DT40 TDP1 no CPT	uPA generation	miR-21 reporter	TDP1 block	TDP1 cell CPT
> CCOc1ccc(/C=N/NC(=S)NC2CC3CC2C2C=CCC32)cc1 (stereo not given)
 : 16.4µM*	5.7%	-0.1%	1.3%	16.4µM*
> CC(Oc1ccccc1Cl)C(=O)Nc1ccc(S(=O)(=O)N2CCN(C)CC2)cc1 (stereo not given)
 : ?	7.5%	.	.	?
> CC(=O)c1sc(NC(=O)c2c(-c3ccccc3)c(-c3ccccc3)nn(C)c2=O)nc1C
 : 0.517µM*	.	26.9%	0.0%	0.411µM*
> CCC(C)NC(=O)c1c(-c2ccccc2)c(-c2ccccc2)nn(C)c1=O (stereo not given)
 : -3.7%	.	12.1%	2.3%	-7.4%
